Ab-14 heavy chain CDR variants: yeast mating affinities

Binding partner: SARS-CoV-2 spike HR2 peptide, sequence PDVDLGDISGINAS.

Ab-14 is the parent antibody, in scFv form: VH, then three GGGGS repeats, then VL. The light chain is unchanged in all variants.
VH: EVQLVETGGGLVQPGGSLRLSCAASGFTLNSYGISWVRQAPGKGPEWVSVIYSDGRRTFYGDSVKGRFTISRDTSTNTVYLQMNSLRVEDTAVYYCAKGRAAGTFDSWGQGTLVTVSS
VL: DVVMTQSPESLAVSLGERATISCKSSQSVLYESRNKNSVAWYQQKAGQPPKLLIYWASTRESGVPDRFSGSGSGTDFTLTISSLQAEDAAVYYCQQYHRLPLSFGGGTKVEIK

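The parent was found by panning a naive human phage display library on the peptide. The variants were designed computationally from a first round of random CDR variants and then made and measured. Group labels follow the data file (Rand: our label for a block that the file lists under HC and that is probably the random mutants of the ten best first-round binders; En: ensemble of fine-tuned language models; HC: hill climbing; Gen: genetic algorithm; Gibbs: Gibbs sampling; a sequence that several methods proposed may carry one label only). Affinity was read by AlphaSeq, a pooled yeast mating assay with surface-displayed partners. Pairs that bind mate more often; barcode pairs of the diploids are counted by sequencing. The ratio of observed to expected reads was calibrated, replicate by replicate, on BCL2-family standards whose Kd was known from biolayer interferometry. Each pool was mated in six replicate cultures.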

Variants are written as CDR1, CDR2 and CDR3 of the heavy chain (limits as in the source). Parent: GFTLNSYGIS, VIYSDGRRTFYGDSVK, GRAAGTFDS. This list holds designs with more than six substitutions. Values are apparent Kd, the geometric mean of the replicates that gave a signal; lower means stronger binding. "nd" means that the variant was in the library but no mating with the target was seen in any replicate; the authors take this as a sign of poor binding, and no number exists. In the paper, a design with two or fewer of six values counts as a poor binder. Of ten entries with the parent sequence, four were seen in most replicates (averages 2.2 nM to 240 nM), three in one and three in none, so single entries are noisy. A sequence measured in both rounds can read differently, since the two assays cover different ranges. Three control strains display no target. For all heavy chain designs, 1% of the pairings with them gave a signal, with a median of 120 nM and one signal in twenty below 7.0 nM, so weak values seen in few replicates may be background. The control count says in how many pairings with the empty strains this scFv gave a signal.

- GFDLNEYGIS / VIYADGVRTFYSDSVK / GEAGGTFDV [En_HC]: 2.1 nM (6 of 6 replicates; controls 0 of 18)
- GFDLDEYGIS / VIYADGKRTAYADDVK / GQNAGTFDV [En_Gen]: 420 pM (4 of 6 replicates; controls 0 of 18)
- GFDLNEYGIS / VIYADGRRTFYADSVK / GTNAGTFDQ [En_HC]: 150 pM (6 of 6 replicates; controls 0 of 18)
- GFDLNEYGIS / VIYADGRRTSYVDSVK / GENAGTFDV [En_HC]: 1.6 nM (6 of 6 replicates; controls 0 of 18)
- GFSLDEMGIS / VIYADGQRTSYVDNVK / GVQGSRVSL [En_Gibbs]: 10 nM (6 of 6 replicates; controls 1 of 18)
- GFDLNEYGIS / VIYADGSRKAYADSVK / GNVAGTFDQ [En_Gen]: 94 pM (6 of 6 replicates; controls 0 of 18)
- GFDLNEYGIS / VIYADGMRTVYADSVK / GGNAGTFDV [En_Gen]: 210 pM (6 of 6 replicates; controls 0 of 18)
- GFDLDEYGIS / VIYADGQRTFYADSVK / GETAGTFDV [En_Gen]: 58 pM (6 of 6 replicates; controls 0 of 18)
- GFDLNEYGIS / VIYADGMRTFYADSVK / GNVAGTFDL [En_Gen]: 410 pM (6 of 6 replicates; controls 0 of 18)
- GFDFNEYGIS / VIYADGKRTAYADKVK / GGKNAFTDI [En_Gibbs]: 77 µM (1 of 6 replicates; controls 1 of 18)
- GFPLNEYGIS / VIYSDGMRTFYTDSVK / GRFAGYVDS [Rand]: nd (0 of 6 replicates; controls 0 of 18)
- GFNLNEYGIS / VIYADGQRKFYADSVK / GNTAGTFDV [En_HC]: 270 pM (6 of 6 replicates; controls 0 of 18)
- GGNLDEYGIS / VIYADGKRRQYVDNVK / GSHADMFDM [En_Gibbs]: nd (0 of 6 replicates; controls 0 of 18)
- GFDLNEYGIS / VIYADGIRTAYADSVK / GNTAGTFDV [En_Gen]: 500 pM (6 of 6 replicates; controls 0 of 18)
- GFDLNEYGIS / VIYADGVRTFYADSVK / GENAGTFDL [En_Gen]: 550 pM (6 of 6 replicates; controls 0 of 18)
- GFDLNEYGIS / VIYADGRRTFYADSVK / GEIAGTFDF [En_HC]: 3.9 nM (4 of 6 replicates; controls 0 of 18)
- GFDLDEYGIS / VIYADGRRQAYADSVK / GENAGTFDV [En_Gen]: 260 pM (6 of 6 replicates; controls 0 of 18)
- GFNLDEYGIS / VIYADGMRTFYADSVK / GNVAGTFDL [En_Gen]: 480 pM (6 of 6 replicates; controls 0 of 18)
- GFDLNEYGIS / VIYADGLRTAYADSVK / GNVAGTFDM [En_Gen]: 22 pM (6 of 6 replicates; controls 0 of 18)
- GFDLDEYGIS / VIYADGRRTFYADSVK / GQNAGTFDV [En_HC]: 3.5 nM (6 of 6 replicates; controls 1 of 18)
- GFDLNEYGIS / VIYADGRRTAYSDSVK / GEIAGTFIQ [En_HC]: 610 pM (6 of 6 replicates; controls 0 of 18)
- GFDLNEYGIS / VIYADGRRTFYADSVK / GKNAGTFEV [En_HC]: 340 pM (6 of 6 replicates; controls 0 of 18)
- GFNLEDYGIS / VIYADGMRTFYADSVK / GEVAGTFDV [En_HC]: 810 pM (6 of 6 replicates; controls 0 of 18)
- GFDLQEYGIS / VIYADGARYAYTNSVK / GTQAGSLIV [En_Gibbs]: nd (0 of 6 replicates; controls 0 of 18)
- GFDLNEYGIS / VIYADGKRTSYADSVK / GNQAGTFDV [En_Gen]: 430 pM (6 of 6 replicates; controls 1 of 18)
- GFDLNEYGIS / VIYADGVRTAYSDSVK / GNTAGTFDT [En_Gen]: 33 nM (6 of 6 replicates; controls 0 of 18)
- GFDLNEYGIS / VIYADGKRTAYADSVK / GEVAGTFDM [En_Gen]: 370 pM (6 of 6 replicates; controls 0 of 18)
- GKALDEYGIS / VIYADGQRVFYSDTVK / GNQGFTYDV [En_Gibbs]: nd (0 of 6 replicates; controls 0 of 18)
- GFKLNEYGIS / VIYADGQRKAYTDSFK / GTQAGMVFE [En_Gibbs]: nd (0 of 6 replicates; controls 0 of 18)
- GFDLDEYGIS / VIYADGMRTSYADSVK / GENAGTFDL [En_Gen]: 1.1 nM (6 of 6 replicates; controls 0 of 18)
- GFNLDEYGIS / VIYADGMRTQYKDQVK / GNLVATNMT [En_Gibbs]: nd (0 of 6 replicates; controls 0 of 18)
- GADINEYGIS / VIYADGDRIAAQDQVK / GTNAGSFDI [En_Gibbs]: 220 nM (1 of 6 replicates; controls 1 of 18)
- GFDLNEYGIS / VIYADGRRTFYSDSVK / GEIAGTFVS [En_HC]: 4.9 nM (5 of 6 replicates; controls 0 of 18)

The first 5 variants above that were never detected:

CDR-H1	CDR-H2	CDR-H3	group	Kd (apparent)	replicates with signal	empty controls
GFPLNEYGIS	VIYSDGMRTFYTDSVK	GRFAGYVDS	Rand	nd	0 of 6	0 of 18
GGNLDEYGIS	VIYADGKRRQYVDNVK	GSHADMFDM	En_Gibbs	nd	0 of 6	0 of 18
GFDLQEYGIS	VIYADGARYAYTNSVK	GTQAGSLIV	En_Gibbs	nd	0 of 6	0 of 18
GKALDEYGIS	VIYADGQRVFYSDTVK	GNQGFTYDV	En_Gibbs	nd	0 of 6	0 of 18
GFKLNEYGIS	VIYADGQRKAYTDSFK	GTQAGMVFE	En_Gibbs	nd	0 of 6	0 of 18

The measurements come from Li et al. 2023 (doi:10.1038/s41467-023-39022-2) through the FLAb antibody collection.